# Data: ChEMBL document CHEMBL5584335, “Investigating Active Site Binding of Ligands to High and Low Activity Carbonic Anhydrase Enzymes Using Native Mass Spectrometry” (J Med Chem, 2024)
# Target: Carbonic anhydrase 2 (Homo sapiens) (UniProt P00918)
# Assay: Binding affinity to human recombinant CA II expressed in Escherichia coli BL21 (DE3) cells assessed as normalized unbound protein/acetate-bound protein remaining at 18.18 uM at protein:compound ratio of 1:2 incubated for 30 mins by native mass spectrometry analysis relative to control
smiles,measurement,value
NS(=O)(=O)c1cc2c(cc1C(F)(F)F)NC(Cc1ccccc1)NS2(=O)=O (stereo unspecified),Activity,100%
